Data: ChEMBL document CHEMBL4014310, “Selective IKur Inhibitors for the Potential Treatment of Atrial Fibrillation: Optimization of the Phenyl Quinazoline Series Leading to Clinical Candidate 5-[5-Phenyl-4-(pyridin-2-ylmethylamino)quinazolin-2-yl]pyridine-3-sulfonamide” (J Med Chem, 2017)

By UniProt entry, the sequences of proteins in these tests, tags left out.
UniProt P05177, whole entry: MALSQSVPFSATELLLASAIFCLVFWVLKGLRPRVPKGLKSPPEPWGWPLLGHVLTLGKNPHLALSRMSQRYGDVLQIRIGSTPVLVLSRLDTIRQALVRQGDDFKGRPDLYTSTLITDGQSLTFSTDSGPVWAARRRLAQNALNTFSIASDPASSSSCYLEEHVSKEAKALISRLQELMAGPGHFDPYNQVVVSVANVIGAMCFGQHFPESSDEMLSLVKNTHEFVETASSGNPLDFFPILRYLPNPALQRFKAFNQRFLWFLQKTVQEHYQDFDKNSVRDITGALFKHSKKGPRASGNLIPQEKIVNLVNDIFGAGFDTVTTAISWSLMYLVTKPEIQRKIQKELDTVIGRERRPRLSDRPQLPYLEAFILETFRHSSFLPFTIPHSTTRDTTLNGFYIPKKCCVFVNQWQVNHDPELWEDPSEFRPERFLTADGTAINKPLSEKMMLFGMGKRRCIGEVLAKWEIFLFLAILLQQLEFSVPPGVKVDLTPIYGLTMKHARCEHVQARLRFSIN

Biological target: Cytochrome P450 1A2 (Homo sapiens, UniProt P05177)
Assay: Inhibition of CYP1A2 (unknown origin)
Type: ADME

IC50: < 10 µM
Structure (SMILES): c1ccc(-c2cccc3nc(-c4cccnc4)nc(NCc4ccccn4)c23)cc1
